By UniProt entry, the sequences of proteins in these tests, tags left out.
UniProt Q09472, whole entry: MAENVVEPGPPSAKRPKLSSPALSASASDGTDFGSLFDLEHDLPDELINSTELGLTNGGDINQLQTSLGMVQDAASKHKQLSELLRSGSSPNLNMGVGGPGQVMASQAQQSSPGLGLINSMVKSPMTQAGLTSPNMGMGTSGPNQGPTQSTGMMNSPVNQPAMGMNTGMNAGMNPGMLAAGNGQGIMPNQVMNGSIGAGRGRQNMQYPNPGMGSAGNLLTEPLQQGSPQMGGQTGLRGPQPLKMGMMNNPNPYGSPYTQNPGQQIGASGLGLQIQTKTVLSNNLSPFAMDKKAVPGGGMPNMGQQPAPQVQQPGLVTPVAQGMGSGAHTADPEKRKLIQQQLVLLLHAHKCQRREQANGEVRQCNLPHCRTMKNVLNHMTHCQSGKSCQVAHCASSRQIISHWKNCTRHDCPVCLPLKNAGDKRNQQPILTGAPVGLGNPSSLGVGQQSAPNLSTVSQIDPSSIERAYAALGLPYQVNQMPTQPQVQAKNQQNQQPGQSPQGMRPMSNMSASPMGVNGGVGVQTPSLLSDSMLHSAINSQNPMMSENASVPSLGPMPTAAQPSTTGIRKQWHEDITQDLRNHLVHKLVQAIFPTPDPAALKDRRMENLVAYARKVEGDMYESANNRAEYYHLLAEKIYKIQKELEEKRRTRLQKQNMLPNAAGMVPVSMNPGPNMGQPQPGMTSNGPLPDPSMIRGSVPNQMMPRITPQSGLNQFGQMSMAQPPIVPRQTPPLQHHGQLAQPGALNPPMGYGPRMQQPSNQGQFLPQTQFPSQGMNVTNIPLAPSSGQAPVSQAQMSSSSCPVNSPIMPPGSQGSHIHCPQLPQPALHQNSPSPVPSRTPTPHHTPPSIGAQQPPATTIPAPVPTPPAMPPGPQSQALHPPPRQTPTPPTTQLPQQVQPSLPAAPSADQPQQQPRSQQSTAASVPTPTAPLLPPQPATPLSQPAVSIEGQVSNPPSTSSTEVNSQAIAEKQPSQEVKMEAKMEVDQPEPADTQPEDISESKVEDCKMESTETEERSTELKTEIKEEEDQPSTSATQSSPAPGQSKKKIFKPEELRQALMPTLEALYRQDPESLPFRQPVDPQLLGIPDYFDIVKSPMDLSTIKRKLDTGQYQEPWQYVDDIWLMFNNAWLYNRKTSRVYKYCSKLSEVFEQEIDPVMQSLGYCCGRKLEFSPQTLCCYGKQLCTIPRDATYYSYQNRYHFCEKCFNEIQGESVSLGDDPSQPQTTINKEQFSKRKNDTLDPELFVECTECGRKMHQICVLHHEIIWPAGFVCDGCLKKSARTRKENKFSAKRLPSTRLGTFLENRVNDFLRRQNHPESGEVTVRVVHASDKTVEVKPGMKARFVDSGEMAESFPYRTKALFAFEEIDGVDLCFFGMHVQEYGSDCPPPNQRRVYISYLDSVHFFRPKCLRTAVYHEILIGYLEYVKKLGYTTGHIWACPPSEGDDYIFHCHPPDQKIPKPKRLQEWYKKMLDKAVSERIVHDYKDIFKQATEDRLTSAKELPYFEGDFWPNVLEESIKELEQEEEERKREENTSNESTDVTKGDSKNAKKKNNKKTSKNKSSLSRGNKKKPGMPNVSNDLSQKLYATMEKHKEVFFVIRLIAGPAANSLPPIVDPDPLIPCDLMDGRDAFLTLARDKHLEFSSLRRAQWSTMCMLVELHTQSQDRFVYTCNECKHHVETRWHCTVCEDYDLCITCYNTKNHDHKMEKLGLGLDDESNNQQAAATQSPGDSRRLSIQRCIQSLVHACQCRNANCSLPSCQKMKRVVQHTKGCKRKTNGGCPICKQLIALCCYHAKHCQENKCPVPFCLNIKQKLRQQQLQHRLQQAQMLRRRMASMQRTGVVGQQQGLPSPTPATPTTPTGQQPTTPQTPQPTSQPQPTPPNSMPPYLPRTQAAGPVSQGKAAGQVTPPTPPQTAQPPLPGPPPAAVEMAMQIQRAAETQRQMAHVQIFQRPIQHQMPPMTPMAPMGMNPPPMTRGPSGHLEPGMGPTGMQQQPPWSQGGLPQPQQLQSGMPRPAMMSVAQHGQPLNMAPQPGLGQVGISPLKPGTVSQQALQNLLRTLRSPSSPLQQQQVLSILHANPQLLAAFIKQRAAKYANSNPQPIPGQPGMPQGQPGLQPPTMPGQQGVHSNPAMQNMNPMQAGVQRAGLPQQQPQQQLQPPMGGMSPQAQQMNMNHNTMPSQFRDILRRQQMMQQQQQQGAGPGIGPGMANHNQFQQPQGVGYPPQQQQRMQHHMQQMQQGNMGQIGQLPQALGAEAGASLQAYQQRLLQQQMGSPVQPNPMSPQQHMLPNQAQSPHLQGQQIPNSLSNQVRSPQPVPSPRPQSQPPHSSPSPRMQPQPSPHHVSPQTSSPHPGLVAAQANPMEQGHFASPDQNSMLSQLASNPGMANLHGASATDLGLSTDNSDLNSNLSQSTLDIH

In ChEMBL document CHEMBL4480430, “Advances in inhibition of protein-protein interactions targeting hypoxia-inducible factor-1 for cancer therapy” (Bioorg Med Chem, 2019):

Legend:
[1] = biological target: T1, Histone acetyltransferase p300 (Homo sapiens, UniProt Q09472); experiment: Binding affinity to p300 (unknown origin) by fluorescence anisotrophy
[2] = biological target: T1, Histone acetyltransferase p300; experiment: Binding affinity to p300 (unknown origin) by ITC assay

Kd [1]: 16 nM
Kd [2]: 45 nM
SMILES: CC[C@H](C)[C@H](NC(=O)[C@@H]1CCCN1C(=O)[C@H](C)NC(=O)[C@H](CC(N)=O)NC(=O)[C@@H](NC(=O)[C@H](CCC(=O)O)NC(=O)[C@H](CS)NC(=O)[C@H](CC(=O)O)NC(=O)[C@H](Cc1ccc(O)cc1)NC(=O)[C@H](CO)NC(=O)[C@@H](NC(=O)[C@H](CC(C)C)NC(=O)[C@H](CCC(N)=O)NC(=O)[C@@H]1CCCN1C(=O)[C@H](CC(C)C)NC(=O)CNC(=O)[C@H](CO)NC(=O)[C@H](CCC(=O)O)NC(=O)[C@H](CC(=O)O)NC(=O)[C@H](CCSC)NC(=O)[C@@H](N)CO)[C@@H](C)O)C(C)C)C(=O)N[C@@H](CCC(N)=O)C(=O)NCC(=O)N[C@@H](CO)C(=O)N[C@@H](CCCNC(=N)N)C(=O)N[C@@H](CC(N)=O)C(=O)N[C@@H](CC(C)C)C(=O)N[C@@H](CC(C)C)C(=O)N[C@@H](CCC(N)=O)C(=O)NCC(=O)N[C@@H](CCC(=O)O)C(=O)N[C@@H](CCC(=O)O)C(=O)N[C@@H](CC(C)C)C(=O)N[C@@H](CC(C)C)C(=O)N[C@@H](CCCNC(=N)N)C(=O)N[C@@H](C)C(=O)N[C@@H](CC(C)C)C(=O)N[C@@H](CC(=O)O)C(=O)N[C@@H](CCC(N)=O)C(=O)N[C@H](C(=O)N[C@@H](CC(N)=O)C(=O)O)C(C)C
